Experimental data: ChEMBL document CHEMBL1773004, “1-[(1-methyl-1H-imidazol-2-yl)methyl]-4-phenylpiperidines as mGluR2 positive allosteric modulators for the treatment of psychosis” (J Med Chem, 2011)

Protein sequences, listed by entry. Tags and fused reporters are not part of them.
UniProt P61169, whole entry: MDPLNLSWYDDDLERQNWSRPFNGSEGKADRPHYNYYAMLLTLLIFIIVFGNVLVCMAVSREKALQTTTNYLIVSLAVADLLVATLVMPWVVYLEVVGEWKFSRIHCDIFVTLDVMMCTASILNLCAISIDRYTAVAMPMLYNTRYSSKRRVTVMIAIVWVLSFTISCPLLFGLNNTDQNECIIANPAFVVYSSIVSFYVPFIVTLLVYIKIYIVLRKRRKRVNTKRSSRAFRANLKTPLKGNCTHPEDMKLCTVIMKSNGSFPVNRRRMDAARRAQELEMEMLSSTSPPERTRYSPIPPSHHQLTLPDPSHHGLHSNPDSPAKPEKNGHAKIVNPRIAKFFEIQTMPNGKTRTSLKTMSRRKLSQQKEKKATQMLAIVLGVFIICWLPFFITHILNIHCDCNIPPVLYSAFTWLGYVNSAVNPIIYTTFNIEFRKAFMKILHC

Target: D(2) dopamine receptor (Rattus norvegicus, UniProt P61169)
Test: Displacement of [3H]spiperone from dopamine D2 receptor in rat corpus striatum by beta plate scintillation counting
Format: tissue-based

| Structure (SMILES) | Ki |
| --- | --- |
| Cn1c(CN2CCC(c3ccc(Cl)cc3F)CC2)nc2ccccc21 | 91 nM |
| Cn1c(CN2CCC(c3ccccc3F)CC2)nc2ccccc21 | 93 nM |
